The results in this text go back to US20210395313A1, “PEPTIDE PAC1 ANTAGONISTS” (AMGEN INC., priority 2017, published 2021).

One assay concerns the target T1, human PAC1 receptor (Homo sapiens, UniProt P41586).
T1 construct: SHSY-5Y (human neuroblastoma cell line) and RG-2 (rat glioma cell line) cells endogenously express human and rat PAC1 receptors, respectively; endogenous in cells; host or cells: SHSY-5Y human neuroblastoma cells
T1 sequence (P41586 21-468): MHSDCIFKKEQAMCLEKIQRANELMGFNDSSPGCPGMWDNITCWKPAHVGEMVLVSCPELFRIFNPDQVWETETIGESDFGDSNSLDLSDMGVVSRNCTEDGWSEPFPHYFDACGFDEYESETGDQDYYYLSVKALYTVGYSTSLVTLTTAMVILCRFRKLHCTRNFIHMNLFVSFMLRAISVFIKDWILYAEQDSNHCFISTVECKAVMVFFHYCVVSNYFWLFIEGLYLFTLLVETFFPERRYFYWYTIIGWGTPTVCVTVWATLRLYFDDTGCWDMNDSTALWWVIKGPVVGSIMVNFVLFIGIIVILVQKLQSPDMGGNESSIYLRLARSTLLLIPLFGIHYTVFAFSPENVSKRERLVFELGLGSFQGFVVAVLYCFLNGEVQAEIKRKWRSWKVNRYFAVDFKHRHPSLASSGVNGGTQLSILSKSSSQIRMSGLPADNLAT
Nature of the assay: LANCE Ultra cAMP accumulation antagonist assay in SHSY-5Y cells.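 Further: inhibition of cAMP accumulation evoked by PAC1 agonist at its EC80 in SHSY-5Y cells endogenously expressing receptor, 30 min preincubation then 15 min agonist, TR-FRET readout.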 The class given is cell-based. (In TR-FRET formats the signal depends on donor and acceptor labels being close together.)

A further assay has as its target T2, rat PAC1 receptor (Rattus norvegicus, UniProt P32215).
T2 construct: SHSY-5Y (human neuroblastoma cell line) and RG-2 (rat glioma cell line) cells endogenously express human and rat PAC1 receptors, respectively; endogenous in cells; host or cells: RG-2 rat glioma cells
T2 sequence (P32215 20-523): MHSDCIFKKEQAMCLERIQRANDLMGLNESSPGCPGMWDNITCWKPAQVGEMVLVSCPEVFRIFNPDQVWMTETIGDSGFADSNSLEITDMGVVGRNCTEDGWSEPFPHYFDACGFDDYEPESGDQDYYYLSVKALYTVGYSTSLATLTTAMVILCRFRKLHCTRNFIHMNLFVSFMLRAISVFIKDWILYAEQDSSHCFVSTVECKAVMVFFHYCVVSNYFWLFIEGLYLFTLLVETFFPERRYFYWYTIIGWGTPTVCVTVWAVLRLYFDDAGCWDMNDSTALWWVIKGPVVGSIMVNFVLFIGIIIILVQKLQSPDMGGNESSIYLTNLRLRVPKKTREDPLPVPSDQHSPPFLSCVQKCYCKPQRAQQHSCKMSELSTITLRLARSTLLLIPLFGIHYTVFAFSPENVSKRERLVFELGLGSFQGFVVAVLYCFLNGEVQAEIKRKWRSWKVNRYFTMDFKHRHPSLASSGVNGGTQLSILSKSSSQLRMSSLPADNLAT
As to the kind of experiment: LANCE Ultra cAMP accumulation antagonist assay in RG-2 cells.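 Further: RG-2 rat glioma cells endogenously expressing PAC1, test peptide preincubated 30 min, then PAC1 agonist added at its EC80 for 15 min, cAMP accumulation read by LANCE Ultra.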 The class given is cell-based.

With `CC[C@H](C)[C@H](NC(=O)[C@H](C)NC(=O)[C@H](CCCCN)NC(=O)[C@H](CCCNC(=N)N)NC(=O)[C@H](Cc1ccccc1)NC(=O)[C@H](CCC(N)=O)NC(=O)[C@@H]1CSSC[C@H](N)C(=O)N[C@@H](CC(=O)O)C(=O)N[C@@H](C)C(=O)N[C@@H]([C@@H](C)O)C(=O)N1)C(=O)N[C@@H](CC(=O)O)C(=O)N[C@@H](CC(=O)O)C(=O)N[C@H]1CSSC[C@@H](C(=O)N[C@@H](CCSC)C(=O)N[C@@H](CCCCN)C(=O)N[C@@H](CCC(N)=O)C(=O)N[C@@H](CCCCN)C(=O)N[C@@H](CCCCN)C(=O)N[C@@H](CCCCN)C(=O)N[C@@H](CCC(=O)O)C(=O)N[C@@H](Cc2ccccc2)C(=O)N[C@@H](CCCCN)C(=O)N[C@@H](C)C(=O)NCC(N)=O)NC(=O)C(C)(C)NC(=O)[C@H](CCCCN)NC(=O)[C@H](Cc2ccccc2)NC(=O)[C@H](C(C)C)NC(=O)[C@H](CO)NC(=O)CNC(=O)[C@@H]2CCCN2C(=O)[C@H](C(C)C)NC(=O)[C@H](CC(N)=O)NC(=O)[C@H](CO)NC(=O)[C@H](Cc2c[nH]cn2)NC(=O)[C@H](Cc2c[nH]cn2)NC(=O)[C@H](C)NC(=O)[C@H](CCC(N)=O)NC(=O)[C@H](CCCCN)NC(=O)[C@H](CC(=O)O)NC1=O` [compound 254], the IC50 at human PAC1 receptor and on rat PAC1 receptor was 0.01 to 1 nM throughout.

Turning to `CCCC[C@H](NC(=O)[C@@H]1CSSC[C@H](NC(=O)[C@H](CC(=O)O)NC(=O)[C@H](CC(=O)O)NC(=O)[C@@H](NC(=O)[C@H](C)NC(=O)[C@H](CCCCN)NC(=O)[C@H](CCCNC(=N)N)NC(=O)[C@H](Cc2ccccc2)NC(=O)[C@H](CCC(N)=O)NC(=O)[C@@H]2CSSC[C@H](N)C(=O)N[C@@H](CC(=O)O)C(=O)N[C@@H](C)C(=O)N[C@@H]([C@@H](C)O)C(=O)N2)[C@@H](C)CC)C(=O)N[C@@H](CC(=O)O)C(=O)N[C@@H](CCCCN)C(=O)N[C@@H](CCC(N)=O)C(=O)N[C@@H](C)C(=O)N[C@@H](Cc2c[nH]cn2)C(=O)N[C@@H](Cc2c[nH]cn2)C(=O)N[C@@H](CO)C(=O)N[C@@H](CO)C(=O)N[C@@H](C(C)C)C(=O)N[C@@H](Cc2ccccc2)C(=O)N[C@@H](CCCCN)C(=O)NC(C)(C)C(=O)N1)C(=O)N[C@@H](CCCCN)C(=O)N[C@@H](CCC(N)=O)C(=O)N[C@@H](CCCCN)C(=O)N[C@@H](CCCCN)C(=O)N[C@@H](CCCCN)C(=O)N[C@@H](CCC(=O)O)C(=O)N[C@@H](Cc1ccccc1)C(=O)N[C@@H](CCCCN)C(N)=O` [compound 218], the IC50 against human PAC1 receptor and against rat PAC1 receptor was 1 to 100 nM in each case.

With `CC[C@H](C)[C@H](NC(=O)[C@H](C)NC(=O)[C@H](CCCCN)NC(=O)[C@H](CCCNC(=N)N)NC(=O)[C@H](Cc1ccccc1)NC(=O)[C@H](CCC(N)=O)NC(=O)[C@@H]1CSSC[C@H](N)C(=O)N[C@@H](CC(=O)O)C(=O)N[C@@H](C)C(=O)N[C@@H]([C@@H](C)O)C(=O)N1)C(=O)N[C@@H](CC(=O)O)C(=O)N[C@@H](CC(=O)O)C(=O)N[C@H]1CSSC[C@@H](C(=O)N[C@@H](CCSC)C(=O)N[C@@H](CCCCN)C(=O)N[C@@H](CCC(N)=O)C(=O)N[C@@H](CCCCN)C(=O)N[C@@H](CCCCN)C(=O)N[C@@H](CCCCN)C(=O)N[C@@H](CCC(=O)O)C(=O)N[C@@H](Cc2ccccc2)C(=O)N[C@@H](CCCCN)C(N)=O)NC(=O)C(C)(C)NC(=O)[C@H](CCCCN)NC(=O)[C@H](Cc2ccccc2)NC(=O)[C@H](C(C)C)NC(=O)[C@H](CO)NC(=O)CNC(=O)[C@@H]2CCCN2C(=O)[C@H](C(C)C)NC(=O)[C@H](CC(N)=O)NC(=O)[C@H](CO)NC(=O)[C@H](Cc2c[nH]cn2)NC(=O)[C@H](Cc2c[nH]cn2)NC(=O)[C@H](C)NC(=O)[C@H](CCC(N)=O)NC(=O)[C@H](CCCCN)NC(=O)[C@H](CC(=O)O)NC1=O` [compound 271], the IC50 – broadly, the concentration at which inhibition is half-maximal – fell in the range of 1 to 100 nM at human PAC1 receptor and 0.01 to 1 nM against rat PAC1 receptor.

As for `CCCC[C@H](NC(=O)[C@@H]1CSSC[C@H](NC(=O)[C@H](CC(=O)O)NC(=O)[C@H](CC(=O)O)NC(=O)[C@@H](NC(=O)[C@H](C)NC(=O)[C@H](CCCCN)NC(=O)[C@H](CCCNC(=N)N)NC(=O)[C@H](Cc2ccccc2)NC(=O)[C@H](CCC(N)=O)NC(=O)[C@@H]2CSSC[C@H](N)C(=O)N[C@@H](CC(=O)O)C(=O)N[C@@H](C)C(=O)N[C@@H]([C@@H](C)O)C(=O)N2)[C@@H](C)CC)C(=O)N[C@@H](CCC(N)=O)C(=O)N[C@@H](CCCCN)C(=O)N[C@@H](CCC(N)=O)C(=O)N[C@@H](C)C(=O)N[C@@H](Cc2c[nH]cn2)C(=O)N[C@@H](Cc2c[nH]cn2)C(=O)N[C@@H](CO)C(=O)N[C@@H](CC(N)=O)C(=O)N[C@@H](CO)C(=O)N[C@@H](Cc2ccccc2)C(=O)N[C@@H](CCCCN)C(=O)NC(C)(C)C(=O)N1)C(=O)N[C@@H](CCCCN)C(=O)N[C@@H](CCC(N)=O)C(=O)N[C@@H](CCCCN)C(=O)N[C@@H](CCCCN)C(=O)N[C@@H](CCCCN)C(=O)N[C@@H](CCC(=O)O)C(=O)N[C@@H](Cc1ccccc1)C(=O)N[C@@H](CCCCN)C(N)=O` [compound 241], the IC50 against human PAC1 receptor and against rat PAC1 receptor was 1 to 100 nM each time.

As to `CCCC[C@H](NC(=O)[C@@H]1CSSC[C@H](NC(=O)[C@H](CC(=O)O)NC(=O)[C@H](CC(=O)O)NC(=O)[C@@H](NC(=O)[C@H](C)NC(=O)[C@H](CCCCN)NC(=O)[C@H](CCCNC(=N)N)NC(=O)[C@H](Cc2ccccc2)NC(=O)[C@H](CCC(N)=O)NC(=O)[C@@H]2CSSC[C@H](N)C(=O)N[C@@H](CC(=O)O)C(=O)N[C@@H](C)C(=O)N[C@@H]([C@@H](C)O)C(=O)N2)[C@@H](C)CC)C(=O)N[C@@H](CCC(N)=O)C(=O)N[C@@H](CCCCN)C(=O)N[C@@H](CCC(N)=O)C(=O)N[C@@H](C)C(=O)N[C@@H](Cc2c[nH]cn2)C(=O)N[C@@H](Cc2c[nH]cn2)C(=O)N[C@@H](CO)C(=O)N[C@@H](CO)C(=O)N[C@@H](C(C)C)C(=O)N[C@@H](Cc2ccccc2)C(=O)N[C@@H](CCCCN)C(=O)NC(C)(C)C(=O)N1)C(=O)N[C@@H](CCCCN)C(=O)N[C@@H](CCC(N)=O)C(=O)N[C@@H](CCCCN)C(=O)N[C@@H](CCCCN)C(=O)N[C@@H](CCCCN)C(=O)N[C@@H](CCC(=O)O)C(=O)N[C@@H](Cc1ccccc1)C(=O)N[C@@H](CCCCN)C(N)=O` [compound 242], the IC50 at human PAC1 receptor and against rat PAC1 receptor was 1 to 100 nM in each case.

As for `CSCC[C@H](NC(=O)[C@H](CS)NC(=O)C(C)(C)NC(=O)[C@H](CCCCN)NC(=O)[C@@H](N)Cc1ccccc1)C(=O)N[C@@H](CCCCN)C(=O)N[C@@H](CCC(N)=O)C(=O)N[C@@H](CCCCN)C(=O)N[C@@H](CCCCN)C(=O)N[C@@H](CCCCN)C(=O)N[C@@H](CCC(=O)O)C(=O)N[C@@H](Cc1ccccc1)C(=O)N[C@@H](CCCCN)C(=O)N[C@@H](C)C(=O)NCC(N)=O` [compound 232], the IC50 against human PAC1 receptor is more than 100 nM; at rat PAC1 receptor, 1 to 100 nM.

On to `CC[C@H](C)[C@H](NC(=O)[C@H](C)NC(=O)[C@H](CCCCN)NC(=O)[C@H](CCCNC(=N)N)NC(=O)[C@H](Cc1ccccc1)NC(=O)[C@H](CCC(N)=O)NC(=O)[C@@H]1CSSC[C@H](N)C(=O)N[C@@H](CC(=O)O)C(=O)N[C@@H](C)C(=O)N[C@@H]([C@@H](C)O)C(=O)N1)C(=O)N[C@@H](CC(=O)O)C(=O)N[C@@H](CC(=O)O)C(=O)N[C@H]1CSSC[C@@H](C(=O)N[C@@H](CCSC)C(=O)N[C@@H](CCCCN)C(=O)N[C@@H](CCC(N)=O)C(=O)N[C@@H](CCCCN)C(=O)N[C@@H](CCCCN)C(=O)N[C@@H](CCCCN)C(=O)N[C@@H](CCC(=O)O)C(=O)N[C@@H](Cc2ccccc2)C(=O)N[C@@H](CCCCN)C(N)=O)NC(=O)C(C)(C)NC(=O)[C@H](CCCCN)NC(=O)[C@H](Cc2ccccc2)NC(=O)[C@H](CO)NC(=O)[C@H](CC(N)=O)NC(=O)[C@H](CO)NC(=O)[C@H](Cc2c[nH]cn2)NC(=O)[C@H](Cc2c[nH]cn2)NC(=O)[C@H](C)NC(=O)[C@H](CCC(N)=O)NC(=O)[C@H](CCCCN)NC(=O)[C@H](CCC(N)=O)NC1=O` [compound 247], for which the IC50 against human PAC1 receptor and on rat PAC1 receptor was 1 to 100 nM throughout.
